Measurements reported in PubChem BioAssay AID1947 (The Scripps Research Institute Molecular Screening Center, 2009).
This is a selection; strong and weak results do not stand in their true shares. Activity calls are given as the source filed them.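 The calls were made as follows: active = inhibition above the screen mean inhibition plus 3 SD, computed separately per campaign (cut at about 18% in these data); inactive = the rest.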

The compounds below were run on Fam108B (ABHD17B) serine hydrolase [Mus musculus] (assay: mouse Fam108B serine hydrolase inhibitors, primary screen, counter-screen for RBBP9 inhibitor project, biochemical, fluorescence polarization (AID 1947;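 also: inhibitors lower polarization as less probe binds the enzyme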)). Settings: recombinant Fam108B, FP-Rh probe fluorescence polarization; at 9.51 µM; stronger effect = higher value.

SMILES | inhibition
N#CCCN(C(=O)COC(=O)C(O)(c1ccccc1)c1ccccc1)c1ccc(F)cc1 | inactive: -0.63%
CN(C(=O)Cc1ccccc1)[C@@H]1CC[C@]2(CCCO2)C[C@H]1N1CCCC1 | inactive: 4.63%
CCOP1(=S)c2c(C)nn(CCC#N)c2N=C(c2ccc(F)cc2)N1C (stereo not given) | inactive: 2%
O=[N+]([O-])c1ccc2c(c1)nnn2O | inactive: 5.87%
CN(C)C(=O)c1cc([N+](=O)[O-])cc2c1-c1c(cc([N+](=O)[O-])cc1[N+](=O)[O-])C2=O | active: 40.3%
CN(C(=O)Cc1ccc(Cl)c(Cl)c1)[C@H]1CC[C@@]2(CCCO2)C[C@@H]1N1CCCC1 | inactive: 0.72%
NC(=O)Nc1ccc([As](=O)(O)O)cc1 | inactive: -1.57%
Nc1ccccc1[As](=O)(O)c1ccccc1 | inactive: -0.7%
O=C(O)COc1ccc([As](=O)(O)O)cc1[N+](=O)[O-] | inactive: -0.13%
CCOP1(=S)c2c(C)nn(CCC#N)c2N=C(c2ccccc2F)N1C (stereo not given) | inactive: -2.71%
O=P(Nc1nccs1)(Oc1ccccc1)Oc1ccccc1 | inactive: 1.2%
O=P(Nc1nccs1)(c1ccccc1)c1nc2ccccc2s1 (stereo not given) | inactive: -3.19%
CS(=O)(=O)c1cc([N+](=O)[O-])c2no[n+]([O-])c2c1 | inactive: 2.08%
COc1cc(C2NCCC3(OCCO3)C2(C)C)cc(OC)c1OC (stereo not given) | inactive: -2.36%
CCOP(=O)(Nc1cccc2ccccc12)OCC | inactive: 0.57%
Cc1ccc(NCCc2c([N+](=O)[O-])cc([N+](=O)[O-])cc2[N+](=O)[O-])cc1 | inactive: 7.26%
Nc1cccc2c([As](=O)(O)O)cccc12 | active: 35.6%
CCCOP(=S)(Nc1nc(N)cc(=O)[nH]1)OCCC | inactive: -6.56%
Cc1cccc(OCC(=O)OC2CN3CCC2CC3)c1 (stereo not given) | inactive: 3.63%
O=[As](O)(c1cccc(O)c1)c1cccc(O)c1 | inactive: 1.02%
O=C(OC1CN2CCC1CC2)c1ccc(Cl)cc1 (stereo not given) | inactive: -1.16%
O=[As](O)(O)c1cccnc1 | inactive: 2.3%

SMILES | inhibition
COc1cc(C(=O)NCC2(N3CCOCC3)CCCCC2)cc(Cl)c1OC(C)C | inactive: 4.19%
CS(=O)(=O)c1ccc(Cl)c(NC(=O)COC(=O)C(O)(c2ccccc2)c2ccccc2)c1 | inactive: -3.29%
CC(C)/C=N\N=C(\N)N[N+](=O)[O-] | inactive: 0.86%
CN(C(=O)Cc1ccc(Cl)c(Cl)c1)[C@@H]1CCCC[C@H]1N1CCCC1 | inactive: 1.55%
O=[As](O)(c1ccccc1Br)c1ccccc1Br | inactive: -1.45%
CC1(CBr)Cn2c(nc3ccccc3c2=O)S1 (stereo not given) | inactive: -4.1%
COc1ccccc1CNC(=O)COC(=O)C(O)(c1ccccc1)c1ccccc1 | inactive: -3.58%
Clc1n[nH]nc1-c1nn[nH][15n]1 | inactive: 0.34%
CC(C)(C)C(=O)NC(Sc1ncccn1)C(Cl)(Cl)Cl (stereo not given) | inactive: -2.17%
O=P1(Nc2ccccn2)COc2ccccc2OC1 | inactive: -0.66%
CCC1=CC2Cc3nc4ccc(Cl)cc4c(N)c3C(C1)C2 (stereo not given) | inactive: 0.28%
CCOP(=O)(NC(=NC(C)c1ccccc1)NC(C)c1ccccc1)OCC (stereo not given) | inactive: 1.65%
CCOP(=O)(Nc1ccc(C)cn1)OCC | inactive: 4.46%
CN(CCCl)Cc1cc(Cl)c(NC2=NCCN2)c(Cl)c1 | inactive: 0.94%
Nc1cccc([As](=O)(O)c2ccccc2)c1 | inactive: 0.39%
Cc1ccc(OCC(=O)OC2CN3CCC2CC3)cc1 (stereo not given) | inactive: 5.17%
O=[As](O)(c1cccs1)c1cccs1 | inactive: 4.96%
O=P1(Nc2ccc(Br)cn2)COc2ccccc2OC1 | inactive: 1.94%
O=P1(Nc2ncccn2)COc2ccccc2OC1 | inactive: 1.49%
CN(C)C1(CNC(=O)c2ccc(S(C)(=O)=O)cc2)CCCCC1 | inactive: 1.11%
O=C(/C=C/c1ccccc1)OC1CN2CCC1CC2 (stereo not given) | inactive: 1.05%
Cc1nn(-c2ccccc2)c2c1P(=O)(N1CCOCC1)N(C)C(c1ccccc1)=N2 (stereo not given) | inactive: 6.1%

SMILES | inhibition
CC1CCC(C(C)C)C(OP(=O)(Nc2ccccn2)c2ccccc2)C1 (stereo not given) | inactive: -6.67%
Cc1ccc(C(=O)OC2CN3CCC2CC3)cc1 (stereo not given) | inactive: 0.06%
O=P(Nc1ccccn1)(c1cccc2ccccc12)c1cccc2ccccc12 | inactive: 0.99%
Cc1cc(SC(NC=O)C(Cl)(Cl)Cl)ncn1 (stereo not given) | inactive: 0.05%
CCOC(=O)Nc1cccc([As](=O)(O)O)c1 | inactive: 3.09%
Cc1cc(SC(NC(=O)c2ccccc2)C(Cl)(Cl)Cl)nc(C(C)C)n1 (stereo not given) | inactive: 2.34%
CCOC(=O)Nc1ccc([As](=O)(O)O)c(O)c1 | inactive: 3.15%
CCC(C)N(CC(C)C)C(=S)SC(NC(C)=O)C(Cl)(Cl)Cl (stereo not given) | inactive: 2.7%
O=C(OC1CN2CCC1CC2)c1cccc([N+](=O)[O-])c1 (stereo not given) | inactive: -1.49%
CCOC(=O)c1ccc(NC(=O)C(C)(CCl)SC)cc1 (stereo not given) | inactive: -3.82%
O=C(COc1ccccc1)OC1CN2CCC1CC2 (stereo not given) | inactive: -2.89%
O=C(Nc1ccncc1[N+](=O)[O-])c1ccc([N+](=O)[O-])cc1[N+](=O)[O-] | inactive: 2.49%
COP1(=S)c2c(C)nn(CCC#N)c2N=C(c2ccc(F)cc2)N1C (stereo not given) | inactive: -0.75%
COc1ccc(N/C(=N/P(=O)(N2CCOCC2)N2CCOCC2)N2CCOCC2)cc1 | inactive: 0.98%
COc1ccc2nc(NP(=O)(c3ccccc3)c3ccccc3)sc2c1 | inactive: -3.99%
COc1cc(I)ccc1[As](=O)(O)O | inactive: 0.08%
Cc1c2c(nc3ccccc13)SC(C(Cl)Cl)C2 (stereo not given) | inactive: -2.29%
O=C(OC1CN2CCC1CC2)C12CC3CC(CC(C3)C1)C2 (stereo not given) | inactive: 6.99%
Cc1cc(=O)[nH]c(N[N+](=O)[O-])n1 | inactive: -2.06%
CC(C)NC(=O)NP(=O)(Oc1ccccc1)Oc1ccccc1 | inactive: -2.81%
CCN(CC)C(=S)SC(NC=O)C(Cl)(Cl)Cl (stereo not given) | inactive: 0.67%
